Reference: ChEMBL document CHEMBL1133449 (J Med Chem, 2000)
Values joined by “and” are separate entries in the source; they are usually repeats but may differ in a detail not shown here. Equal entries are not always repeated.

What was measured:
Acetylcholinesterase [1] = molecular target: Acetylcholinesterase (Bos taurus, UniProt P23795)
Acetylcholinesterase [2] = molecular target: Acetylcholinesterase (Homo sapiens, UniProt P22303)
Cholinesterase = Cholinesterase (Homo sapiens, UniProt P06276); settings: Serum

| Structure (SMILES) | IC50 (Acetylcholinesterase [1]) | IC50 (Acetylcholinesterase [2]) | IC50 (Cholinesterase) |
| --- | --- | --- | --- |
| CCC1=CC2Cc3nc4ccc(Cl)cc4c(N)c3C(C1)C2 (stereo unspecified) | 257 nM | 425 nM | 762 nM |
| CCC1=CC2Cc3nc4cccc(F)c4c(N)c3C(C1)C2 (stereo unspecified) | – | 29.5 nM | 109 nM |
| CCC1=CC2Cc3nc4cc(F)ccc4c(N)c3C(C1)C2 (stereo unspecified) | – | – | 32.4 nM and 185 nM and 57.4 nM |
